The entries are a selection whose mix differs from that of the whole data set. Activity calls are given as the source filed them.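 How the source made its calls: active means melting temperature shift of at least 10% of the positive control shift, at one fixed dose; inactive means the rest.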
tested on: Glutamate receptor ionotropic, NMDA 3A (GRIN3A) ligand-binding domain; test: NR3A LBD thermal stabilization by compounds – biophysical, differential scanning fluorimetry, uHTS, primary screen (AID 1259313); conditions: at 25 µM, stronger effect = higher value, 0% = protein alone, 100% = glycine-bound protein

SMILES | Tm shift relative to glycine control
Nc1cc(N)c2nonc2c1[N+](=O)[O-] | inactive: 3.84%
Oc1ccccc1CNc1ccccn1 | inactive: 0.7%
O=C(NC(Sc1ccncn1)C(Cl)(Cl)Cl)c1ccccc1 (stereo unspecified) | inactive: -2.89%
NC(=O)c1cc([N+](=O)[O-])cc([N+](=O)[O-])c1N | inactive: 1.26%
Cc1ccc(N/C(=N/P(=O)(N2CCOCC2)N2CCOCC2)N2CCOCC2)cc1 | inactive: -0.75%
COc1ccccc1OP(=O)(Nc1ccc(C)cn1)Oc1ccccc1OC | inactive: 0.16%
Cc1ccc(OP(=O)(Nc2nccs2)Oc2ccc(C)cc2)cc1 | inactive: 1.49%
Clc1ccc(Cl)c(NC2=NCC(CBr)S2)c1 (stereo unspecified) | inactive: -1.34%
CN1CCCC(OC(=O)C(c2ccccc2)c2ccccc2)C1 (stereo unspecified) | inactive: -0.59%
Nc1ccc([As](=O)(O)c2ccc(N)cc2)cc1 | inactive: -0.95%
C[N+]1=C2C=CC=CC=C2SC12C([N+](=O)[O-])=CC([N+](=O)[O-])=C[C-]2[N+](=O)[O-] (stereo unspecified) | inactive: 2.42%
CCN(/C(=N/P(=O)(N1CCOCC1)N1CCOCC1)N1CCOCC1)c1ccc(OC)cc1 | inactive: 0.36%
CC(C)=N/N=C(\N)N[N+](=O)[O-] | inactive: 0.16%
CN(C)C(=O)OCCc1n(C)cc[n+]1C | inactive: -11.3%
CC1CCN(C(=O)Oc2c(Cl)cc(Cl)c3cccnc23)CC1 | inactive: 2.46%
COc1ccc(C2=NCC(CBr)S2)cc1 (stereo unspecified) | inactive: 0.15%
O=[N+]([O-])c1cccc2n[nH]nc12 | inactive: -2.23%
CC(=O)N1C2C3N(C(C)=O)C1C1N(C(C)=O)C(C(N1C(C)=O)N3C(C)=O)N2C(C)=O | inactive: 0.55%
Cc1ccc(NP(=O)(Oc2ccccc2)Oc2ccccc2)nc1 | inactive: -0.39%
CCc1nc2c(n1)c1c(non1O)c1c2no[n+]1[O-] | inactive: 0.29%
O=[N+]([O-])c1cc([N+](=O)[O-])c(CCNc2ccccc2)c([N+](=O)[O-])c1 | inactive: -3.43%
CC(C)(C)C(=O)NC(Sc1ccncn1)C(Cl)(Cl)Cl (stereo unspecified) | inactive: -3.55%
O=[N+]([O-])c1ncn(CCn2ncnc2[N+](=O)[O-])n1 | inactive: -0.67%
O=[N+]([O-])c1cccc(NC2=NCC(CBr)S2)c1 (stereo unspecified) | inactive: 2.25%
COC(=O)C1(C)COP(=O)(Nc2ccccc2)OC1 (stereo unspecified) | inactive: 2.74%
O=C(O)CNc1ccc([As](=O)(O)O)cc1 | inactive: -2.02%

SMILES | Tm shift relative to glycine control
O=P1(N(CCCl)CCCl)OCCCS1 (stereo unspecified) | inactive: 1.22%
O=C(Nc1cc([As](=O)(O)O)ccc1O)c1ccccc1 | inactive: 5.66%
CCOC(=O)Nc1cccc([As](=O)(O)O)c1 | inactive: -2.23%
O=[N+]([O-])c1ccc(Nc2ccc(Oc3ccc([N+](=O)[O-])cc3[N+](=O)[O-])cc2)c([N+](=O)[O-])c1 | inactive: 1.8%
O=P(Nc1ccccn1)(c1cccc2ccccc12)c1cccc2ccccc12 | inactive: -1.75%
Cc1cc(SC(NC=O)C(Cl)(Cl)Cl)ncn1 (stereo unspecified) | inactive: 0.19%
CC1CCNP(=O)(N(CCCl)CCCl)O1 (stereo unspecified) | inactive: 2.42%
CCOC(=O)Nc1ccc([As](=O)(O)O)c(O)c1 | inactive: -1.17%
CCCCOc1ccc(C(=O)NCC2(N3CCCCC3)CCCCC2)cc1OC | inactive: -0.43%
Cc1cc(SC(NC(=O)c2ccccc2)C(Cl)(Cl)Cl)nc(C(C)C)n1 (stereo unspecified) | inactive: 3.36%
CCOC(=O)c1ccc(NC(=O)C(C)(CCl)SC)cc1 (stereo unspecified) | inactive: 2.37%
O=C(OC1CN2CCC1CC2)c1cccc([N+](=O)[O-])c1 (stereo unspecified) | inactive: 2.08%
CCC(C)N(CC(C)C)C(=S)SC(NC(C)=O)C(Cl)(Cl)Cl (stereo unspecified) | inactive: -1.38%
COP1(=S)c2c(C)nn(CCC#N)c2N=C(c2ccc(F)cc2)N1C (stereo unspecified) | inactive: -1.03%
O=C(COc1ccccc1)OC1CN2CCC1CC2 (stereo unspecified) | inactive: 0.69%
O=C(Nc1ccncc1[N+](=O)[O-])c1ccc([N+](=O)[O-])cc1[N+](=O)[O-] | inactive: -0.19%
COc1ccc(N/C(=N/P(=O)(N2CCOCC2)N2CCOCC2)N2CCOCC2)cc1 | inactive: 0.46%
O=[N+]([O-])c1cc(Oc2ccc([N+](=O)[O-])cc2C(F)(F)F)cc([N+](=O)[O-])c1 | inactive: -6.81%
O=C(OC1CN2CCC1CC2)C12CC3CC(CC(C3)C1)C2 (stereo unspecified) | inactive: 0.69%
Cc1cc(=O)[nH]c(N[N+](=O)[O-])n1 | inactive: 0.51%
Cc1c2c(nc3ccccc13)SC(C(Cl)Cl)C2 (stereo unspecified) | inactive: 4.19%
COc1ccc2nc(NP(=O)(c3ccccc3)c3ccccc3)sc2c1 | inactive: -1.45%
COc1cc(I)ccc1[As](=O)(O)O | inactive: -0.16%
O=P1(N(CCCl)CCCl)Nc2ccccc2N1 | inactive: 1.22%
O=P1(N(CCCl)CCCl)OCCCN1CCCl (stereo unspecified) | inactive: 1.02%
